{"source": "patent US6936187B2", "about": "“Functionalized cubic liquid crystalline phase materials and methods for their preparation and use” (priority 2001, dated 2005)", "conditions": "monoolein/water cuboplex gels with ketoprofen"}
{"substance": "di(canola ethyl ester) dimethyl amine chloride [DEEDAC]", "values": [{"measurement": "level at which the additive can be included in cuboplex gel", "value": "greater than 20%"}]}
